The record followed here is US12466818B2, “Thienyl-aniline compounds for treatment of dermal disorders” (NFlection Therapeutics, Inc., priority 2018, dated 2025).

Sequences of proteins named here, by UniProt entry; tags and fusion partners are left off.
UniProt Q02750, whole entry: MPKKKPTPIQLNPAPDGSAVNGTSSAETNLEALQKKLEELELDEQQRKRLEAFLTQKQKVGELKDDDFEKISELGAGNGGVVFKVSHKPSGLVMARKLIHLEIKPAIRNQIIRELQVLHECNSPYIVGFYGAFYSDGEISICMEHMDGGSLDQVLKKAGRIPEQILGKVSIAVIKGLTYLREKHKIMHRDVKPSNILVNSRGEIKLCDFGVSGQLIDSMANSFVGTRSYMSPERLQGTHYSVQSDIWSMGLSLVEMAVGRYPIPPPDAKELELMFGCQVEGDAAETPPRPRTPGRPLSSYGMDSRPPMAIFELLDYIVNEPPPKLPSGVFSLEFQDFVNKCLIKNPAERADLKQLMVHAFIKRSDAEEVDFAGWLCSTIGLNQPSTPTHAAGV

The structures appear in SMILES notation.

For the assay, the target named is MEK1 (Homo sapiens (Human), UniProt Q02750). The experiment in a line: Assay 1: biochemical MEK IC50 assay (Example 36, 33P-ATP filter-binding). To be noted: read-out: Assay 1: biochemical MEK IC50; Example 36, recombinant human MEK1, substrate ERK2 (K52R). As to the method:
The following procedure can be used to measure biochemical activity. MEK1 inhibitory activity of compounds were tested using the following procedure. […] Nat Biotechnol. 2011, 29(11), 1039-45.
• Reaction buffer: 20 mM Hepes (pH 7.5), 10 mM MgCl2, 1 mM EGTA, 0.02% Brij35, 0.02 mg/mL BSA, 0.1 mM Na3VO4, 2 mM DTT, 1% DMSO • Enzyme: MEK1, Invitrogen cat #PV3303 • N-terminal His-tagged recombinant human full length protein, expressed in insect cells. Activated in vitro by RAFT. MW=49.2 kDa, GenBank Accession No. NP_002746. • Substrate: 5 μM ERK2 (K52R), • Kinase-dead mutant, (GenBank Accession No. NM_0011949), aa2-358 with N-terminal His6 tag, MW=43.63 kDa, expressed in E. coli.
The substrate was prepared in freshly prepared Reaction Buffer. The kinase was delivered into the substrate solution and gently mixed. Test compounds were delivered in 100% DMSO into the kinase reaction mixture by Acoustic technology (Echo550; nanolitter range), and incubated for 20 min at room temperature. ^33P-ATP was delivered into the reaction mixture to initiate the reaction. The reaction mixture was incubated for 2 hours at room temperature. Kinase activity was detected by P81 filter-binding method.
Assay 1 is the biochemical MEK IC50 (nM) assay as described in Example 36. […]

A word on the IC50: it is the point on the concentration scale where inhibition reaches its midpoint. For `CC(=O)c1sc(Nc2ccc(I)cc2F)c(C(=O)NOCC2COC2)c1C`, the half-inhibitory concentration (IC50) fell in the range of 1000 to 5000 nM.
